Experimental data published in the supplement of paper PMC7224384.

How the values were obtained:
MDA-MB-453 [1] = experiment: drug sensitivity score (DSS), single agent (DSS (weighted AUC score)); higher = more sensitive (stronger viability decrease); extreme values may be limits of the assay; conditions: BLU9931 0 nM; 72 h
Summary of the method: (§1)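 Cells of the MDA-MB-453 line (2000 per well) were added in medium, with or without 100 nM final FGFR4 inhibitor, to 384-well plates predispensed with FIMM Oncology set compounds at five 10-fold dilutions covering a 10,000-fold range. After 72 h at 37 °C, 5% CO2, CellTiterGlo 2.0 read cellular ATP. Percent viability came from per-plate normalisation to control wells, and the drug sensitivity score was defined as a weighted area under a four-parameter logistic fit.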

MDA-MB-453 [2] = experiment: drug sensitivity score (DSS), in combination with BLU9931 (DSS (weighted AUC score)); higher = more sensitive (stronger viability decrease); extreme values may be limits of the assay; conditions: BLU9931 100 nM; 72 h
Summary of the method: as §1

NCc1ccc(OCCCc2sc(-c3ccc4c(c3)/C(=N/Nc3nc5ccccc5s3)CCC4)nc2C(=O)O)cc1 [WEHI-539] was tested, and the drug sensitivity score (MDA-MB-453 [1]) was 0 and the drug sensitivity score (MDA-MB-453 [2]) was 0.
